In PMC11434980, “Deciphering Chemical Rules for Drug Penetration into Strongyloides” (Pharmaceutics, 2024):

Tested on: S. venezuelensis L3s
Method: Baerman-obtained S. venezuelensis L3s were rinsed twice with distilled water and counted, and 100 to 150 larvae were placed per well in 96-well flat-bottom culture plates. Larvae were incubated at 28 °C for 30 min to allow adaptation and treated with compounds in the range of 0.5–40 µM for 72 h at 28 °C in a humid atmosphere. Mortality was assessed as the lack of any movement detected during 1 min of observation under an inverted microscope (40×), at 24, 48, and 72 h after treatment. The ability to stain the larvae was pointed out when observed; at 72 h, larvae were collected and washed two times with distilled water and placed in a new well to remove the background color and photographed. Pictures were also taken at 24 and 48 h without cleaning the larvae so as not to interfere with the 72 h readout of the experiment. […] All experiments were conducted in triplicate and at least three different times. The antiparasitic activity of the compounds was expressed as the concentration that inhibited the motility of half of the larvae (immobilization concentration 50, IC50).
A total of 15 dyes were tested against S. venezuelensis L3s at a 20 µM concentration. The activity was determined by the number of larvae lacking motility relative to the total number in the well after 1 min of light excitation at 24, 48, and 72 h after treatment.

Question: With CN(C)c1ccc2nc3ccc(=[N+](C)C)cc-3sc2c1 [Methylene Blue] as the molecule, how does the “Screening 20 µM 72 h” value read?
Answer: Active
